Measured values taken from ChEMBL document CHEMBL4402583, “Rational Substitution of ε-Lysine for α-Lysine Enhances the Cell and Membrane Selectivity of Pore-Forming Melittin” (J Med Chem, 2020).
Values after ≈ are worked out from the molar mass of the structure shown.

Tests used:
Type in all cases: functional
[1] = test system: Pseudomonas aeruginosa; assay: Antibacterial activity against Pseudomonas aeruginosa assessed as reduction in bacterial growth incubated for 24 hrs by broth microdilution method
[2] = test system: Staphylococcus aureus; assay: Antibacterial activity against methicillin-sensitive Staphylococcus aureus assessed as reduction in bacterial growth incubated for 24 hrs by broth microdilution method
[3] = test system: Staphylococcus aureus; assay: Antibacterial activity against Staphylococcus aureus assessed as reduction in bacterial growth incubated for 24 hrs by broth microdilution method
[4] = test system: Staphylococcus aureus; assay: Antibacterial activity against methicillin-resistance Staphylococcus aureus assessed as reduction in bacterial growth incubated for 24 hrs by broth microdilution method

## CC[C@H](C)[C@H](NC(=O)CN)C(=O)NCC(=O)N[C@@H](C)C(=O)N[C@H](C(=O)N[C@@H](CC(C)C)C(=O)N[C@@H](CCCCN)C(=O)N[C@H](C(=O)N[C@@H](CC(C)C)C(=O)N[C@H](C(=O)N[C@H](C(=O)NCC(=O)N[C@@H](CC(C)C)C(=O)N1CCC[C@H]1C(=O)N[C@@H](C)C(=O)N[C@@H](CC(C)C)C(=O)N[C@H](C(=O)N[C@@H](CO)C(=O)N[C@@H](Cc1c[nH]c2ccccc12)C(=O)N[C@H](C(=O)N[C@@H](CCCCN)C(=O)N[C@@H](CCCNC(=N)N)C(=O)N[C@@H](CCCCN)C(=O)N[C@@H](CCCNC(=N)N)C(=O)N[C@@H](CCC(N)=O)C(=O)N[C@@H](CCC(N)=O)C(N)=O)[C@@H](C)CC)[C@@H](C)CC)[C@@H](C)O)[C@@H](C)O)C(C)C)C(C)C [MELITTIN]
[1]
  MIC: 4 to 32 mg/L (≈ 1.41 to 11.2 µM)
[2]
  MIC: 4 to 8 mg/L (≈ 1.41 to 2.81 µM)
[3]
  MIC: 4 to 8 mg/L (≈ 1.41 to 2.81 µM)
[4]
  MIC: 4 to 8 mg/L (≈ 1.41 to 2.81 µM)
